Data reported in ChEMBL document CHEMBL5053542, “C-terminal modified Enkephalin-like tetrapeptides with enhanced affinities at the kappa opioid receptor and monoamine transporters” (Bioorg Med Chem, 2021).

The chains behind the UniProt entries cited, without tags or fusion partners.
UniProt P23975, whole entry: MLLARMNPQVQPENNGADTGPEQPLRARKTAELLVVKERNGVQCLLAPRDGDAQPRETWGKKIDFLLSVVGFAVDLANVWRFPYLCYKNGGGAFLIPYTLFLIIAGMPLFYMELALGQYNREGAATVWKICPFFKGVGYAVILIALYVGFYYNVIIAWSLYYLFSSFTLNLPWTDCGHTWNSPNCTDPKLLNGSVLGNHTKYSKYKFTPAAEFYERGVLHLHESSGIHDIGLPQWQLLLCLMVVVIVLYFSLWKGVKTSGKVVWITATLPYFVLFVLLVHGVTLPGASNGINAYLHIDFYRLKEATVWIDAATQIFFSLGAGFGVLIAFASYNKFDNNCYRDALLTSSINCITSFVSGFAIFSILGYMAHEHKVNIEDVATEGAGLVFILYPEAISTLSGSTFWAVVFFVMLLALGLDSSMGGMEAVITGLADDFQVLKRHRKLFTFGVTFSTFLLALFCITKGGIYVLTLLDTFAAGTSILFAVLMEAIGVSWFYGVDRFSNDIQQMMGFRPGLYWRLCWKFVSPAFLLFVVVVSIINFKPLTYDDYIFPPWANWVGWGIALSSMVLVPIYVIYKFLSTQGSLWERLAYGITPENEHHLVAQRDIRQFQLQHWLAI

Target: Sodium-dependent noradrenaline transporter (Homo sapiens) (UniProt P23975)
Test: Displacement of [3H]-Nisoxetine from human NET expressed in HEK cell membrane at 10 uM by radioligand binding assay relative to control

SMILES: CCC(=O)N(c1ccc(Cl)c(Cl)c1)C1CCN(C(=O)[C@H](Cc2ccc(Cl)cc2)NC(=O)CNC(=O)[C@H]2Cc3ccccc3CN2C(=O)[C@@H](N)Cc2cc(C)c(O)c(C)c2)CC1
- inhibition: < 50%
